Earlier results, collected in patent US8765060B2, “Chemical sensor” (Regents of the University of Minnesota, priority 2005, dated 2014).

Conditions: reported salts of 2; cited from earlier work

FC(F)(F)C(F)(F)C(F)(F)C(F)(F)C(F)(F)C(F)(F)c1cc([B-](c2cc(C(F)(F)C(F)(F)C(F)(F)C(F)(F)C(F)(F)C(F)(F)F)cc(C(F)(F)C(F)(F)C(F)(F)C(F)(F)C(F)(F)C(F)(F)F)c2)(c2cc(C(F)(F)C(F)(F)C(F)(F)C(F)(F)C(F)(F)C(F)(F)F)cc(C(F)(F)C(F)(F)C(F)(F)C(F)(F)C(F)(F)C(F)(F)F)c2)c2cc(C(F)(F)C(F)(F)C(F)(F)C(F)(F)C(F)(F)C(F)(F)F)cc(C(F)(F)C(F)(F)C(F)(F)C(F)(F)C(F)(F)C(F)(F)F)c2)cc(C(F)(F)C(F)(F)C(F)(F)C(F)(F)C(F)(F)C(F)(F)F)c1.[Na+] [compound 2]
solubility in perfluoro(butyltetrahydrofuran): soluble
